Measurements: US9133224B2, “Macrocyclic kinase inhibitors” (OSI Pharmaceuticals, LLC, priority 2010, dated 2015)

Amino acid sequences for entries named in this document (tags omitted).
UniProt Q05397, whole entry: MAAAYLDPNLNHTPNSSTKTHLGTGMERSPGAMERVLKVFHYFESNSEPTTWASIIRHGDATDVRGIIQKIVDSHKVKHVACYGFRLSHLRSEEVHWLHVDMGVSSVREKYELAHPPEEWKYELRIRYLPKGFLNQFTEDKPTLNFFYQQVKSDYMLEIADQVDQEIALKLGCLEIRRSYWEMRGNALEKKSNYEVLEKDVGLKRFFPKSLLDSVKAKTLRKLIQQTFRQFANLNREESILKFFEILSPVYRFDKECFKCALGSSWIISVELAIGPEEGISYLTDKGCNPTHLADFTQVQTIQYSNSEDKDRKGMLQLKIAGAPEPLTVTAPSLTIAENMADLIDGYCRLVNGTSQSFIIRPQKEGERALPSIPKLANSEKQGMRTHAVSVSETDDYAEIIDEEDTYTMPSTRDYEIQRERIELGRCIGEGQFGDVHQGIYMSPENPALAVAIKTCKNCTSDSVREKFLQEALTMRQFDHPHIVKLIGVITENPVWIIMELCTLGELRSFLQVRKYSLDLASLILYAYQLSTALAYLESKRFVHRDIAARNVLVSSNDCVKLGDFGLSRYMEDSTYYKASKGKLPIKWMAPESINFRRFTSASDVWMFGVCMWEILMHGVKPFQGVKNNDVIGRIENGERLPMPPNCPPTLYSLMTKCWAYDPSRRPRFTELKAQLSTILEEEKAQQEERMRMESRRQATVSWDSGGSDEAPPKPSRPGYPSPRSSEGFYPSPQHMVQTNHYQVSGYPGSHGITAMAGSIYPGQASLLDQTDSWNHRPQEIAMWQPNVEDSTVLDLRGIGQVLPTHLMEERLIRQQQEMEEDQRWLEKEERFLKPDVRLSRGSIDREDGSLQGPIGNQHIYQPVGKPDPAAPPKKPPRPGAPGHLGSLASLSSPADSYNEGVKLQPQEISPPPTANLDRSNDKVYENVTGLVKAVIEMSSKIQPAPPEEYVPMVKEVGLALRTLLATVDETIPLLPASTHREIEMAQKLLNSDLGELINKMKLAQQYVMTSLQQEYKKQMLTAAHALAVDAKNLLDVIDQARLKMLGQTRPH

Experiments:
[1] = molecular target: GST-tagged full-length FAK enzyme (PTK2) (Homo sapiens, UniProt Q05397); experiment: Biochemical Omnia Assay (FAK); conditions: read-out: FAK Activity Biochemical OMNIA, [ATP] = 50uM, mean IC50
FAK = FAK (Homo sapiens, UniProt Q05397); experiment: Cell-based capture ELISA for inhibition of FAK autophosphorylation [pY397] in U87MG cells

Measured: pIC50

CCOP1(=O)Cc2ccc(c(OC)c2)Nc2ncc(C(F)(F)F)c(n2)Nc2ccc(nc2C(=O)NC)-c2cnn(c2)CC(C)(C)CO1 (single isomer, unassigned)
> 6.40: [1] | FAK; read-out: FAK Activity Mechanistic (U87MG) HP, 50% (v/v) human plasma, mean IC50 | FAK; read-out: FAK Activity Mechanistic (U87MG) MP, 50% (v/v) mouse plasma, mean IC50 | FAK; read-out: FAK Activity Mechanistic (U87MG) NP, no plasma present, mean IC50

pIC50: −log10 of the molar value. Read-outs that look alike come from different tables or passages of the source.
